Values of other authors, collected in publication PMC8243516, “Inhibition of lysosomal phospholipase A2 predicts drug-induced phospholipidosis” (Journal of Lipid Research, 2021).

Chains of the proteins cited; added tags and fusions are not shown. Lines headed by an entry give the natural chain unless they say otherwise; changes in a name come on top.
UniProt Q8VEB4: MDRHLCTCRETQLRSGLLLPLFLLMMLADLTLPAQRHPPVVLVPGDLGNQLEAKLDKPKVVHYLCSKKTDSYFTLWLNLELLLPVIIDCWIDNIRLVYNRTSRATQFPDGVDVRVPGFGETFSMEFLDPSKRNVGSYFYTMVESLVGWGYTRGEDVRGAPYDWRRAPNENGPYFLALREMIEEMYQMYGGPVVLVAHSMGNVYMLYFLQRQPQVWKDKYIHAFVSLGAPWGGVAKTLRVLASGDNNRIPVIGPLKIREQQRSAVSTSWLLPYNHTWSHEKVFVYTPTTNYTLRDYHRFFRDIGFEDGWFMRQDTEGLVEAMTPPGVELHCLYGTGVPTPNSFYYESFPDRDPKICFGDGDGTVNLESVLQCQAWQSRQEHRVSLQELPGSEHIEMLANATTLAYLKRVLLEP

Target: LPLA2 (Mus musculus, UniProt Q8VEB4)
Conditions: covalent binding to catalytic serine; cited from earlier work

In the case of methyl arachidonyl fluorophosphonate, the “Increase of melting temperature of LPLA2” value is listed as 12 °C.
